Experimental data taken from patent US5618812A, “Benzodiazepine derivatives” (Merck Sharp & Dohme, Ltd., priority 1992, dated 1997).

Amino acid sequences for entries named in this document (tags omitted).
UniProt P30551, whole entry: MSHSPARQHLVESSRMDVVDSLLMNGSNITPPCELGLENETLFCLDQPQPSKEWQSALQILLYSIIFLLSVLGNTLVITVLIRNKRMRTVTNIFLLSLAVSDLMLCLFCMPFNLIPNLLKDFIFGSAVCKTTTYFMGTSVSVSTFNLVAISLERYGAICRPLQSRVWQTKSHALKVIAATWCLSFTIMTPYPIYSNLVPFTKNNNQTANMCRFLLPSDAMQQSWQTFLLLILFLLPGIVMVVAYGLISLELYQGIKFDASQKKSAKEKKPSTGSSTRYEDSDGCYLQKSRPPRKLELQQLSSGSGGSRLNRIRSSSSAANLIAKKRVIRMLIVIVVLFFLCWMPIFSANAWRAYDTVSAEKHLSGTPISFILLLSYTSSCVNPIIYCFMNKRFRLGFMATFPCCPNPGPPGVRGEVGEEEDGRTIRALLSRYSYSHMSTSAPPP

Target: CCK-A (Rattus norvegicus, UniProt P30551)
Assay: biochemical
Settings: CCK RECEPTOR BINDING RESULTS IC50 125I-CCK Pancreas
Experimental: The CCK-A and CCK-B antagonising activity of the compounds described herein was evaluated using the assays described in published European patent application no. 0514133. The method essentially involves determining the concentration of the test compound required to displace 50% of the specific ^125 I-CCK from rat pancreas (CCK-A) or guinea pig brain (CCK-B). The data in Table 1 were obtained for compounds of the Examples.

Work on Cc1cccc(NC(=O)NC2N=C(N3CC4CCC(CC4)C3)c3ccccc3N(C)C2=O)c1 (single isomer, unassigned; (-)) [Example 33, (-)-N-[5-(3-Azabicyclo[3,2,2]nonan-3-yl)-2,3-dihydro-1-methyl-2-oxo-1H-1,4-benzodiazepin-3-yl]-N'-[3-methylphenyl]urea Hydrochloride] yielded an IC50 of 1600 nM.

Where a name gives a salt, the structure may show the parent alone.
